Test results as given in PMC10920384 (Heliyon, 2024).

Chains of the proteins cited; added tags and fusions are not shown. Lines headed by an entry give the natural chain unless they say otherwise; changes in a name come on top.
UniProt P22411: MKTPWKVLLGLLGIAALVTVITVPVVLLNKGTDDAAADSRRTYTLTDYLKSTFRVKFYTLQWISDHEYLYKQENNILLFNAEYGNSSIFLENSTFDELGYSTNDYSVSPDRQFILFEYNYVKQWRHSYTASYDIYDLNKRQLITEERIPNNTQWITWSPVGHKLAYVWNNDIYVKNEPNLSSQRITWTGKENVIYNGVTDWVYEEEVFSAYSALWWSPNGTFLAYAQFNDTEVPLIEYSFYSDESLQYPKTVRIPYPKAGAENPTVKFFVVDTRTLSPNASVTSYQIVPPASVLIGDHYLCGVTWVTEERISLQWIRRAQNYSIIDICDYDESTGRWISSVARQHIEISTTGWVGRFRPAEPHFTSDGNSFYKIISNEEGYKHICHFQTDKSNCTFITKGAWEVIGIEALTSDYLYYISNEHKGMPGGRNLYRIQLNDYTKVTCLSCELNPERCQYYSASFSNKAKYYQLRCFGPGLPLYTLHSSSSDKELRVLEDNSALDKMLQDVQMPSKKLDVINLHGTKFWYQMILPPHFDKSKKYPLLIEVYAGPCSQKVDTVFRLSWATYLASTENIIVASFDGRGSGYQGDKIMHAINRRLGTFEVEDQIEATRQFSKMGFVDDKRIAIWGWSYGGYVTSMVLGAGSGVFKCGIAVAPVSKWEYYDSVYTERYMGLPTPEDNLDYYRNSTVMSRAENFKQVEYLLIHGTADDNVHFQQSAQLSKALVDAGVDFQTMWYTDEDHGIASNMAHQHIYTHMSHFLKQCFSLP

Target: dipeptidyl peptidase-IV (DPP-IV) from porcine kidney (Sus scrofa, UniProt P22411)
Test: Dipeptidyl peptidase-IV
Format: biochemical

- IC50: 33.3 µM
SMILES: CC[C@H](C)[C@H](N)C(=O)N1CCC[C@H]1C(=O)N[C@H](C(=O)O)[C@@H](C)CC [Diprotin A, diprotin A, reference compound]
